Chains of the proteins cited; added tags and fusions are not shown.
UniProt P31652, whole entry: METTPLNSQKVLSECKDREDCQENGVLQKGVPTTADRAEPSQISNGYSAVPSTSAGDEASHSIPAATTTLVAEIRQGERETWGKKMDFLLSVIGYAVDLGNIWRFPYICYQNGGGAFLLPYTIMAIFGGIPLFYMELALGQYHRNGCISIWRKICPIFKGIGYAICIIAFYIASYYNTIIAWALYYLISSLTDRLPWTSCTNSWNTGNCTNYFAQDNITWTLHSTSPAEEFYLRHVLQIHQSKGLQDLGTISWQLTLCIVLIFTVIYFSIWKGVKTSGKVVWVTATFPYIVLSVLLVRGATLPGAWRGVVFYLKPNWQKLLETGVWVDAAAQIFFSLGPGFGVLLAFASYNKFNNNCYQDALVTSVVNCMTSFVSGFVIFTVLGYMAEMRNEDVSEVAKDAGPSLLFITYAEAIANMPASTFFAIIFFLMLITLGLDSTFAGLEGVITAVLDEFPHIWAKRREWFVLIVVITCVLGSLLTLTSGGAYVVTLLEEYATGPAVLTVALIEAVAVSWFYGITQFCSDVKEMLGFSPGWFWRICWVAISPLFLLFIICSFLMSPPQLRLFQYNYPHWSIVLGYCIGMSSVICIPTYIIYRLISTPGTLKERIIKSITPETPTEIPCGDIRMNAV

According to patent publication US8329950B2, “Process for preparation of trans 4-(3,4-Dichlorophenyl)-1,2,3,4-tetrahydro-1Napthalenamine” (Sunovion Pharmaceuticals Inc., priority 2005, dated 2012):

Biological target: T1, functional uptake of serotonin (5-HT) (Rattus norvegicus, UniProt P31652)
T1 construct: synaptosomes isolated in a 0.32 M sucrose buffer from a male Wistar rat cortex; from tissue; host or cells: male Wistar rat cortex (whole brain) synaptosomes
Test: Serotonin functional uptake assay in rat synaptosomes
Assay type: biochemical
Details: Table 6; tested initially at 10 μM

CNCCCC1c2ccccc2C=Cc2ccccc21 [protriptyline]
inhibition of 5-HT uptake: — (— <50% inhibition)
